PDI inh: blocks human protein disulfide isomerase activity; P07237; PDI insulin aggregation turbidity, A650, 90 min; inhibition, % at 10 µM; actives 0.052% (n = 350,000); AID 588391;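 active = mean inhibition across replicates of 30% or more, whatever share of single replicates reach that level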
Rev-erbA mod: modulators of human Rev-erb alpha DNA binding | P20393 | Rev-erbα–FITC-DNA binding, fluorescence polarization, 90 min | activity, % at 10 µM | actives 0.79% (n = 370,000);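 active = activity above about 14%, limit read from the data; passing the limit was not always enough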
INS-1E GSIS act: GLuc luminescence reporter in INS-1E cells, primary screen for activators of glucose-dependent secretion of insulin; INS-1E GLuc reporter insulin secretion, 2-3 h; activation, % at 16.6 µM; actives 0.61% (n = 370,000);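 active = lowest replicate activation of at least 40%, so every replicate reaches that level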
SMARCA2 act: SMARCA2 function activation, primary screen | AID 652017 | actives 1% (n = 370,000) | activation, % at 9.1 µM | MG213 cells, MMTV-luciferase reporter, dexamethasone, overnight; in the data active = activation above about 7.8%
UUG fidelity: modulators of start codon recognition fidelity in yeast; S. cerevisiae UUG-firefly luciferase reporter, luminescence/redox ratio; AID 602363; 350,000 tested, 0.13% active; activity score, % at 18.7 µM;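 active = replicate mean at a twofold rise or more, about +100% in these data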;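 also: firefly luciferase made from a UUG start codon reports start codon fidelity; reporter light over untreated wells divided by growth signal over untreated wells; some hits fall short of that in this replicate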
ERp5 block: inhibitors of human ERp5; Q15084; ERp5 insulin aggregation, absorbance 650 nm, 90 min; inhibition, % at 9.99 µM; actives 0.05% (n = 350,000); AID 651711;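 active = mean replicate inhibition above about 25%, with every replicate also reaching it, limit read from the data, passing the limit was not always enough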
SMARCA2 conf: confirmation of SMARCA2 (BRM) function activators; actives 30% (n = 3,500); shares compounds with SMARCA2 act; MG213 cells, MMTV-luciferase with dexamethasone, luminescence, overnight; MG213 cells expressing E1A, Rb sequestered; DMSO wells 0%, reference activator 100%; activation, % at 9.1 µM;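 active = activation above its plate's cutoff, the mean activation of tested wells plus 3 SD, cut at about 7.9% in these data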
VP16 Luc act: counter-screen for SMARCA2 activators: GAL4-VP16 luciferase reporter activation; shares compounds with SMARCA2 act; HEK293 GAL4-VP16 pG5luc reporter, luciferase luminescence; scaled: DMSO wells 0%, SAHA wells 100%; activation, % at 9.1 µM; actives 41% (n = 3,500); AID 686939;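 active = activation above the solvent-only control well mean plus 3 SD, averaged across control plates, cut at about 5.2% in these data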
NR1D1 mod conf: Rev-erb alpha (human) modulation, hit confirmation; shares compounds with Rev-erbA mod; actives 61% (n = 3,000); activation, % at 25 µM; Rev-erb alpha FITC-DNA binding, fluorescence polarization, 90 min;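 active = activation at or above a set limit, or at least 3 SD above the negative control mean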
RORg DNA counter: counter-screen for Rev-erb alpha modulators: RORgamma DNA binding; actives 8% (n = 910); shares compounds with Rev-erbA mod; purified RORgamma protein-FITC-DNA binding, fluorescence polarization; IC50, µM;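 active = Compounds whose fitted half-maximal concentration for disrupting protein-DNA binding is below 10 micromolar; the record names Rev-erb in its text, so the target is in doubt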
Large screens that a line does not name were inactive (follow-up assays come after a bar, where they were run). A selection: hits, their analogues and other compounds. The true share with any hit is near 2.1%.

Clc1ccc(CSc2ccc(-c3ccco3)nn2)cc1	none (no result: INS-1E GSIS act, UUG fidelity)
Cc1ccc(C(=O)OCc2cc(=O)n3ccsc3n2)s1	none
Cc1ccc(C(=O)OCc2cc(=O)n3c(C)csc3n2)s1	SMARCA2 act 8.8 | SMARCA2 conf inactive | VP16 Luc act inactive
COc1ccc(C(=O)Nc2ccnn2C2CCN(C(=O)c3cnsn3)CC2)cc1	SMARCA2 act 8.9 | SMARCA2 conf inactive | VP16 Luc act inactive
COc1ccccc1C(=O)Nc1ccnn1C1CCN(C(=O)c2cnsn2)CC1	none
Cc1ccc(S(=O)(=O)Nc2ccc3c(c2)C(=O)N([C@@H](C)CO)C[C@@H](C)[C@H](CN(C)S(=O)(=O)c2cccs2)O3)cc1	none (no result: PDI inh, Rev-erbA mod, SMARCA2 act)
Cc1cccc(NC(=S)NC(=O)c2ccc(-c3ccccc3)cc2)n1	SMARCA2 act 11 | SMARCA2 conf 10 | VP16 Luc act 6.7
COc1ccc(CCN2CC(C(=O)N(C)Cc3ccccc3OC)CCC2=O)cc1 (stereo not drawn)	SMARCA2 act 8.6 | SMARCA2 conf inactive | VP16 Luc act inactive
COc1ccc2c3c(n(C)c2c1)[C@H](CO)N(C)CC31CCN(S(C)(=O)=O)CC1	none (no result: PDI inh, Rev-erbA mod, SMARCA2 act, UUG fidelity, ERp5 block)
C[C@H](CO)N1C[C@H](C)[C@@H](CN(C)Cc2ccc3c(c2)OCO3)Oc2ccc(NC(=O)NC3CCCCC3)cc2C1=O	none (no result: PDI inh, Rev-erbA mod, SMARCA2 act)
COc1cccc(C2N=C(c3ccccc3C)NO2)c1OC (stereo not drawn)	SMARCA2 act 8.0 | SMARCA2 conf inactive | VP16 Luc act inactive
COc1ccc(CN2CC3(CCN(C(C)=O)CC3)c3c(n(C)c4cc(OC)ccc34)[C@H]2CO)cc1	none (no result: PDI inh, Rev-erbA mod, SMARCA2 act, UUG fidelity, ERp5 block)
CC(C)COc1ccc(-c2nnn(CC(=O)N3CCCC3)n2)cc1	SMARCA2 act 9.9 (no result: INS-1E GSIS act, ERp5 block) | SMARCA2 conf inactive | VP16 Luc act 8.2
C/C=C/c1ccc([C@@H]2[C@@H](CN(C)C(=O)CC)N(C(=O)C3CC3)[C@H]2CO)cc1	none (no result: PDI inh, Rev-erbA mod, SMARCA2 act)
CC1(C)CC(NC(=O)c2cc(Cl)ccc2Cl)CC(C)(C)N1	SMARCA2 act 10 | SMARCA2 conf inactive | VP16 Luc act inactive
Cc1ccc(C)c(C(=O)NC2CC(C)(C)NC(C)(C)C2)c1	none (no result: INS-1E GSIS act, ERp5 block)
COc1ccc2noc3c2c1C(=O)c1ccccc1-3	Rev-erbA mod 21, SMARCA2 act 16 | SMARCA2 conf 8.4 | VP16 Luc act inactive | NR1D1 mod conf inactive
O=C(Cn1sc2ccccc2c1=O)NC12CC3CC(CC(C3)C1)C2	none (no result: Rev-erbA mod, INS-1E GSIS act, SMARCA2 act, ERp5 block)
O=C(Cn1sc2ccccc2c1=O)Nc1ccccc1	Rev-erbA mod 15, SMARCA2 act 12 | SMARCA2 conf inactive | VP16 Luc act inactive | NR1D1 mod conf inactive
C[C@@H]1CCCCO[C@@H](CN(C)Cc2ccccc2)[C@@H](C)CN([C@@H](C)CO)C(=O)c2cc(NC(=O)Nc3cccc4ccccc34)ccc2O1	none (no result: PDI inh, Rev-erbA mod, SMARCA2 act)
O=C(Nc1nc(=O)c2ccccc2s1)c1ccc(F)cc1	Rev-erbA mod 79, SMARCA2 act 19 | SMARCA2 conf 8.1 | VP16 Luc act 8.0 | NR1D1 mod conf 70 | RORg DNA counter inactive
Nc1ccc(C(=O)Nc2nc3ccccc3s2)cc1	none
COc1ccccc1-c1nnc(Nc2nc3c(OC)cccc3s2)o1	Rev-erbA mod 47, SMARCA2 act 15 (no result: INS-1E GSIS act, ERp5 block) | SMARCA2 conf inactive | VP16 Luc act 24 | NR1D1 mod conf 78
COc1cccc2sc(NN)nc12	none (no result: UUG fidelity)
O=C(Nc1nc2ccsc2c(=O)s1)c1ccc(Cl)cc1	Rev-erbA mod 110, SMARCA2 act 14 | SMARCA2 conf 10 | VP16 Luc act 9.1 | NR1D1 mod conf 44 | RORg DNA counter inactive
